Laboratory results as given in US20240309014A1, “MACROCYCLIC COMPOUNDS AND USES THEREOF” (President and Fellows of Harvard College, priority 2017, published 2024).

What was measured:
Format in all cases: in vivo, nude mice
[1] = test system: HSC-2-Luc inoculated into tongue; assay: HSC-2 orthotopic transplantation mouse model; conditions: single agent, Q7Dx3: cetuximab 5 mg/kg, cisplatin 5 mg/kg, Compound (1) 0.09 mg/kg
[2] = test system: FaDu subcutaneous xenograft; assay: FaDu subcutaneous xenograft model in combination with cetuximab; conditions: cetuximab 20 mg/kg alone
Excerpt: A human squamous cell carcinoma of the head and neck (SCCHN) cell line FaDu, which had been cultured in an RPMI-1640 medium containing 10% FBS, and penicillin and streptomycin, was adjusted to a concentration of 5×10^7 cells/mL with Hanks' Balanced Salt Solution to prepare a cell suspension. The cell suspension was inoculated in a volume of […] into a subcutaneous part of a right flank of nude mice, 7 weeks of ages (CAnN.Cg-Foxnlnu/CrlCrlj, female, Charles River Laboratories Japan Inc.). Ten days after cell inoculation, the shortest diameter and the longest diameter of a tumor in each mouse were measured by using an electronic digital caliper (Digimatic™ caliper, Mitutoyo Corporation), so as to calculate the volume of the tumor in accordance with the following calculation formulae: […]
On the basis of the volumes of tumors obtained on the first day of administration, the mice were grouped such that averages of the tumor volumes were substantially equal among the groups. Each test compound was dissolved in DMSO and a solution was stored at the freezer before use. Immediately before the administration, the stock solution was diluted in saline with 100 μM of hydroxypropyl-β-cyclodextrin. Each test compound and was intravenously administered at doses from ¼ MTD to ½ MTD in combination with cetuximab (Erbitux, Merck Serono Co., Ltd.). […]

[3] = test system: KPL-4 subcutaneous xenograft; assay: KPL-4 subcutaneous xenograft model in combination with trastuzumab; conditions: trastuzumab 10 mg/kg alone
Experimental: A human HER-2 positive breast cancer cell line KPL-4, which had been cultured in an RPMI-1640 medium containing 10% FBS, and penicillin and streptomycin, was adjusted to a concentration of 1×10^8 cells/mL with Hank's Balanced Salt Solution to prepare a cell suspension. The cell suspension was inoculated in a volume of 100 μL into a subcutaneous part of a right flank of nude mice, 7 weeks of ages (CAnN.Cg-Foxnlnu/CrlCrlj, female, Charles River Laboratories Japan, Inc.). Sixteen days after the cell inoculation, the shortest diameter and the longest diameter of a tumor in each mouse were measured by using an electronic digital caliper (Digimatic™ caliper, Mitutoyo Corporation), so as to calculate the volume of the tumor in accordance with the following calculation formulae: […]
On the basis of the volumes of tumors obtained on the first day of administration, the mice were grouped such that averages of the tumor volumes were substantially equal among the groups. The experiment was conducted on groups each consisting of 6 mice. Each test compound was dissolved in DMSO and a solution was stored at the freezer before use. Immediately before the administration, the stock solution was diluted in saline. The test compound was intravenously administered at 0.09 mg/kg or 0.18 mg/kg in combination with trastuzumab (Herceptin, Genentech, Inc.).

Row | Substance | ILS (%) [1] | Tumor Regression on day 35 (%) [2] | Tumor Regression (%) [3]
1 | cetuximab [reference compound] | 231% | −242% | –
2 | trastuzumab [reference compound] | – | – | 0%
